Each structure is given as a SMILES string.

The chains behind the UniProt entries cited, without tags or fusion partners.
UniProt P22001, whole entry: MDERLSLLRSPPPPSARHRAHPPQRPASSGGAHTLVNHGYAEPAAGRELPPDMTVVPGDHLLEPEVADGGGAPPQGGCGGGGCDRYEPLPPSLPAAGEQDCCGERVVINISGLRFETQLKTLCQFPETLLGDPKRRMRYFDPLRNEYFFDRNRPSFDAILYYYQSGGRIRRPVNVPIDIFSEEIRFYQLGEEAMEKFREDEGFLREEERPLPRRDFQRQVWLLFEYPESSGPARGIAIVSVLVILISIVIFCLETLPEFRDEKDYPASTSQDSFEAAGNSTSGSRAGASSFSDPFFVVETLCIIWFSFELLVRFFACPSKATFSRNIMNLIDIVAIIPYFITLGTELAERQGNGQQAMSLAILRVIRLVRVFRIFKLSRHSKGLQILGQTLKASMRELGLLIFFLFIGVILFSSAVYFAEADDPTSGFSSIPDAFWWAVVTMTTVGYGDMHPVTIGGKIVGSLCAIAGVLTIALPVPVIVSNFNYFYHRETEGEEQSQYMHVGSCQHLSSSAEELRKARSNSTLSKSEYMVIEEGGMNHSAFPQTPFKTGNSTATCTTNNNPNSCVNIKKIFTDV

This assay deals with human Kv1.3 ion channel (Homo sapiens, UniProt P22001). The assay is described as follows: Inhibition of Kv1.3 currents, planar patch clamp in Jurkat cells. The settings on record: read-out: EC50 Kv1.3, Human Jurkat cells (endogenous hKv1.3), averaged dose response data from 3 or more cells. How it is done: Potency of compounds to inhibit the human Kv1.3 ion channel were determined as follows:
EC50 values for inhibition of Kv1.3 currents were determined by the method according to Schmitz et al (2005) Molecular Pharmacology 68, 1254-1270 with the following differences: • 1. Human Jurkat cells (which endogenously express hKv1.3) were used in place of rat L929 cells. • 2. All electrophysiology was performed using planar patch clamp (Port-A-Patch, Nanion Technologies Gmbh, Munich) in contrast to conventional patch clamp. • 3. EC50 values shown were determined from averaged dose response data obtained from 3 or more cells.
(In general: Patch clamp records ionic current or voltage across a cell membrane.)

The term EC50 denotes the midpoint of the concentration-response curve. For `CC(=O)c1c(C)c2c(c(OCCC(C)c3ccc(F)cc3)c1OCCc1ccccn1)OCC2` (stereo not drawn), the 50% effective concentration (EC50) came to 14 nM.
The same measure for `CC(=O)c1c(O)c(OCCCc2ccccc2)c2occc2c1C`: 300 nM.
The same measure for `CC(=O)c1c(OCCCN2CCOCC2)c(OCCCc2ccccc2)c2occc2c1C`: 430 nM.

For the origin of these results see patent publication US8309545B2, “Benzofuran potassium channel blockers and uses thereof” (Bionomics Limited, priority 2006, dated 2012).
